{"source": "patent US20220089679A1", "about": "“FUSION PROTEIN WITH IMMUNOSUPPRESSIVE ACTIVITY” (FUNDACIÓ INSTITUT D'INVESTIGACIÓ BIOMÈDICA DE BELL, priority 2019, published 2022)", "test_system": "CD3+ T cell proliferation", "assay": "Mixed lymphocyte reaction (MLR) in vitro proliferation assay", "format": "cell-based, human", "settings": "10 μg/mL; 6 days; as compared to spontaneous proliferation without immunosuppressive agents (MLR); two responder subjects", "procedure": "Mixed Lymphocyte reactions (MLR) were performed in the presence or absence of different immunosuppressive drugs to test their inhibitory effect on T cell proliferation, following conventional methodology (Levitsky J, et al., “Allospecific regulatory effects of sirolimus and tacrolimus in the human mixed lymphocyte reaction”, Transplantation, 2011, vol. 91(2), pp. 199-206).\nBriefly, peripheral blood mononuclear cells (PBMC) from healthy controls were used as responder cells. CD3^+-depleted splenocytes extracted from deceased donors and mature dendritic cells (DCs) were extracted with CD2 positive selection cocktail (Stem Cell Technologies, France) following manufacturer's instructions and they were used as stimulators in the assay. […]\nFirst, PBMC were stained with carboxyfluorescein succinimidyl ester (CFSE) (Lloberas N, et al., “Dendritic cells phenotype fitting under hypoxia or lipopolysaccharide; adenosine 5′-triphosphate-binding cassette transporters far beyond an efflux pump”, Clin Exp Immunol., 2013, vol. 172(3), pp. 444-54). […] At day 6, cells were harvested and stained for CD3-APC and CD4-PE (BD Bioscience, San Jose, Calif., USA) 20 minutes in the dark following manufacturer's instructions, and T-cell proliferation were analyzed by flow cytometry (BD FACS CANTO 11, San Jose, Calif., USA) using Facs Diva software and following manufacturer's instructions. […]", "data": [{"substance": "Abatacept [CTLA4-Ig, reference compound]", "values": [{"measurement": "decrease of CD3+ cells proliferation", "value": "40%-80%"}]}]}
